Results on 1 compound are retold here after patent US10745735B2 (priority 2013, dated 2020).

For the assay, the system named is BL21 E. coli cells. The conditions noted are these: HPG 50 μg/ml, 30 min to 16 h, Alexa488-azide.

Consider `C#CCCC(N)C(=O)O` (stereo not shown) [HPG, homopropargylglycine], for which the “incorporation of methionine analogue into expressed protein” value is “acquire HPG from the media and incorporate the methionine analogue in expressed protein”.
